Measurements as given in ChEMBL document CHEMBL1125019 (J Med Chem, 1990).
pIC50: −log10 of the molar value.

Amino acid sequences for entries named in this document (tags omitted).
UniProt P61169, whole entry: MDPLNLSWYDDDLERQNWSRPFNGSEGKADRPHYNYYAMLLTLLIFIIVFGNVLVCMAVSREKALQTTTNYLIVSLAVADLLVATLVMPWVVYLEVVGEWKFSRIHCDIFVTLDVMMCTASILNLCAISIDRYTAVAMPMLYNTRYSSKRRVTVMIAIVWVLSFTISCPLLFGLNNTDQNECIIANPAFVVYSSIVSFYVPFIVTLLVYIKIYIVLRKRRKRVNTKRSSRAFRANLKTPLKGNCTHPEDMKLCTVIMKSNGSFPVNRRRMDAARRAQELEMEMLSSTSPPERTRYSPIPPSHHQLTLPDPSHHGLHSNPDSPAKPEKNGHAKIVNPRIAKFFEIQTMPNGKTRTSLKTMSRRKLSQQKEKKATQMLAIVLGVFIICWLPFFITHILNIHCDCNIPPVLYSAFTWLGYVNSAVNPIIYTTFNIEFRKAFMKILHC

Target: D(2) dopamine receptor (Rattus norvegicus, UniProt P61169)
Assay: Binding affinity against Dopamine receptor D2 from rat brain corpus striatum membrane

pIC50: 7.18
Compound: CN1CCc2cccc3c2[C@H]1Cc1ccc(O)c(O)c1-3 [APOMORPHINE]
